Biological target: T1, PA-IIL lectin (Pseudomonas aeruginosa, UniProt Q9HYN5)
T1 construct: made in house; host or cells: E. coli BL21(DE3) Star
Type: binding
Settings: from concentration dependent curves, analyte to PA-IIL
Procedure: To increase the reproducibility of these sensors, an automated printing method of the chitosan gel was introduced (FIG. 35). Patterned glass microscope slides (Tekdon™) were inserted in a microarray printer (Digilab MicroSys System™), where the robotic head was programmed to dispense alternating layers of chitosan-SWNT (0.25 wt % chitosan (CHI), 1 vol % acetic acid, 30 ug/ml suspended (6,5) SWNT) and crosslinker (10 vol % glutaraldehyde). The suspended SWNT was made from Southwest Nanotechnologies, Inc. CoMoCAT® nanotubes sonicated in 0.25 wt % chitosan (CHI) and 1 vol % acetic acid for 45 minutes at 40% amplitude with a probe-tip sonicator (Cole Parmer, Model CV18). […] The chips were printed in a humidified enclosure (85% RH) at 25° C. and allowed to cross-link overnight in the same environment. Nickel-NTA groups were introduced as previously reported^8; see FIG. 3. […]
A custom-made near infrared inverted microscope (Zeiss D.1 Observer™) setup allowed us to probe the fluorescent emissions of our SWNT sensors (FIG. 26a). […] The SWNT were excited by a 785 nm laser (B&W Tek™—495 mW) and the emission was sent to a spectrometer (Princeton Instruments Acton SpectraPro 2500i Spectrograph™) and accompanying nIR camera (Intervac MOSIR Camera 350™) The spectra were collected via WinSpec software (Princeton Instruments™) and analyzed with custom Matlab (Mathworks™) code. […]

## Fuc-Strept: model glycoprotein probe: biotinylated fucose glycan bound to streptavidin
  kr: 0.0142 s⁻¹
